Bounds are passed on as bounds.

Chains of the proteins cited; added tags and fusions are not shown. Lines headed by an entry give the natural chain unless they say otherwise; changes in a name come on top.
UniProt O00329: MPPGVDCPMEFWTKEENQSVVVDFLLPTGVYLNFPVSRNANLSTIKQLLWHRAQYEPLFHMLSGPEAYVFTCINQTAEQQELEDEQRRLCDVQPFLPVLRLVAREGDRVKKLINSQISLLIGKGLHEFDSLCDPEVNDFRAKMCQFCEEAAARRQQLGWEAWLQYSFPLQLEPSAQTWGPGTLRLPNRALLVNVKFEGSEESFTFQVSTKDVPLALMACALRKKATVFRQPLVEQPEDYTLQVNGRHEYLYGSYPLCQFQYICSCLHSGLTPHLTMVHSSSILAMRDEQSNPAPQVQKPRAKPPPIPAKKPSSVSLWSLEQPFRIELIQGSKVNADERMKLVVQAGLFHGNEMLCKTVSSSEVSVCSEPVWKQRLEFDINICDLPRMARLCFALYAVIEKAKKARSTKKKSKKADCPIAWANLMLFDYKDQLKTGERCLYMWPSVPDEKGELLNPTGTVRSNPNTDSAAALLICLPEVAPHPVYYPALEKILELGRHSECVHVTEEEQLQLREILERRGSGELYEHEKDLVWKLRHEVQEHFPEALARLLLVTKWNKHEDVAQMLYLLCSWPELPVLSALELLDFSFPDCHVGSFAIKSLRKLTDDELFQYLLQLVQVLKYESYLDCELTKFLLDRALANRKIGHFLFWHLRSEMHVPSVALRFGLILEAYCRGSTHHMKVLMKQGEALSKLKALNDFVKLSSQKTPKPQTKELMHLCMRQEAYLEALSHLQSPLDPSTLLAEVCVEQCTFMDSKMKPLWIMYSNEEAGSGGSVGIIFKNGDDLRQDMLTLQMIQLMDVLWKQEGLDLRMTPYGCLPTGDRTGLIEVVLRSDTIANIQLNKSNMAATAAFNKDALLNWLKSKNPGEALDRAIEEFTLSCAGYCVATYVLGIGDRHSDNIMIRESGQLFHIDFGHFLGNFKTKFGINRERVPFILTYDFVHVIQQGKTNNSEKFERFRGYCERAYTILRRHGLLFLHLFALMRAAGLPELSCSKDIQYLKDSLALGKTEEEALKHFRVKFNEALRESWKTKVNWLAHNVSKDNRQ

The text below walks through data of ChEMBL document CHEMBL3879901, “Substituted isoquinolin-1(2H)-ones, and methods of use thereof” (2012).

The target of this assay is PI3-kinase p110-delta/p85-alpha (Homo sapiens, UniProt O00329). In words: Inhibition of N-terminal His6-tagged recombinant full-length human p110delta/untagged recombinant full length p85alpha expressed in baculovirus infected Sf21 cells using phosphatidylinositol as substrate in presence of gamma-32P-ATP after 5 mins by thin layer chromatographic method.

On to `Cc1ccccc1-n1c(Cn2nc(-c3cc(O)cc(F)c3)c3c(N)ncnc32)cc2cccc(C)c2c1=O`, for which the IC50 was under 0.1 µM.

Take `CC(=O)Nc1nc2ccc(-c3nn(Cc4cc5cccc(C)c5c(=O)n4-c4ccccc4C)c4ncnc(N)c34)cc2s1`: the IC50 is under 0.1 µM.
